Results as given in US11319303B2 (WIGEN BIOMEDICINE TECHNOLOGY (SHANGHAI) CO., LTD., priority 2017, dated 2022).

Molecular target: LC3B (Homo sapiens, UniProt Q9GZQ8)
Test: Fluorescence Polarization (FP) Assay: displacement of FITC-labeled peptide from GST-LC3B
Type: binding
Details: GST-LC3B 180 nM, FITC-labeled peptide 18 nM, 25° C.

Structure (SMILES)	IC50 [µM]
COC(=O)c1ccccc1C1CC(=O)C(=CNCCN(C)C)C(=O)C1 (centres unmarked)	< 3
CC(C)(C)OC(=O)N1CCC(CNC=C2C(=O)CC(c3ccccc3)CC2=O)CC1 (centres unmarked)	100 to 1000
O=C1CC(c2cc(O)ccc2Br)CC(=O)C1=CNCCN1CCN(CCO)CC1 (centres unmarked)	< 3
COC(=O)c1ccc(NC=C2C(=O)CC(c3ccccc3)CC2=O)nc1 (centres unmarked)	15 to 100
COC(=O)c1ccc(C2CC(=O)C(=CNCCN3CCOCC3)C(=O)C2)cc1 (centres unmarked)	< 3
CN(CCNC=C1C(=O)CC(c2ccccc2)CC1=O)C(=O)OC(C)(C)C (centres unmarked)	100 to 1000
CC(C)(C)OC(=O)N1CCC(NC=C2C(=O)CC(c3ccccc3)CC2=O)CC1 (centres unmarked)	100 to 1000
CN(C)CCNC=C1C(=O)CC(C(=O)Nc2ccc(C(F)(F)F)cc2)CC1=O (centres unmarked)	3 to 15
CC(=O)OCC(NCCN1CCN(CCO)CC1)=C1C(=O)CC(c2ccccc2)CC1=O (centres unmarked)	100 to 1000
COC(=O)N1CCN(CCNC=C2C(=O)CC(c3ccc(C)cc3)CC2=O)CC1 (centres unmarked)	< 3
CN(C)CCNC=C1C(=O)CC(c2ccccc2NC(=O)OC(C)(C)C)CC1=O (centres unmarked)	< 3
Cc1ccc(C2CC(=O)C(=CNCCN3CCN(C(=S)Nc4ccc(F)cc4)CC3)C(=O)C2)cc1 (centres unmarked)	3 to 15
CN(C)C=C1C(=O)CC(c2cccc(C(N)=O)c2)CC1=O (centres unmarked)	3 to 15
Cc1ccc(NC(=O)CN2CCN(CCNC=C3C(=O)CC(c4cccc5[nH]cc(Cl)c45)CC3=O)CC2)cc1 (centres unmarked)	< 3
CCOC(=O)c1csc(NC=C2C(=O)CC(c3ccccc3)CC2=O)n1 (centres unmarked)	< 3
N=C(N)CNC=C1C(=O)CC(c2ccccc2)CC1=O (centres unmarked)	3 to 15
COC(=O)c1cccc(C2CC(=O)C(=CN(C)C)C(=O)C2)c1 (centres unmarked)	< 3
CN(C)C=C1C(=O)CC(c2cccc(C(=O)NCCCc3ccccc3)c2)CC1=O (centres unmarked)	3 to 15
Cc1ccc(NC(=O)CN2CCN(CCNC=C3C(=O)CC(c4cccc5[nH]ccc45)CC3=O)CC2)cc1 (centres unmarked)	< 3
O=C1CC(/C=C/c2ccccc2)CC(=O)C1=CNCCN1CCN(CCO)CC1 (centres unmarked)	3 to 15
CC(C)(C)OC(=O)NCCCCCCNC=C1C(=O)CC(c2ccccc2)CC1=O (centres unmarked)	100 to 1000
COC(=O)c1ccc(C2CC(=O)C(=CN(C)C)C(=O)C2)cc1 (centres unmarked)	< 3

Same assay, conditions: GST-LC3B 180 nM, FITC-labeled peptide 18 nM, 25° C., tested form: Na salt

IC50 [µM]	Structure (SMILES)
3 to 15	O=C1CC(c2cccs2)CC(=O)C1=CO (single isomer, unassigned)
